For this assay, the target named is human RORgT (Homo sapiens, UniProt P51449). Put plainly: RORgT Gal4 Luciferase Reporter Gene Assay. Particulars: read-out: RORgT-GAL4 EC50; engineered Jurkat cells overexpressing RORgT (LBD or full length) fused with Gal4 Luc reporter; 18 hours at 37° C.; luminescence. In general terms: In a reporter assay the amount or activity of a reporter protein is the signal.

The chains behind the UniProt entries cited, without tags or fusion partners. Residues count along the entry.
UniProt P51449, 267-516 limits assumed: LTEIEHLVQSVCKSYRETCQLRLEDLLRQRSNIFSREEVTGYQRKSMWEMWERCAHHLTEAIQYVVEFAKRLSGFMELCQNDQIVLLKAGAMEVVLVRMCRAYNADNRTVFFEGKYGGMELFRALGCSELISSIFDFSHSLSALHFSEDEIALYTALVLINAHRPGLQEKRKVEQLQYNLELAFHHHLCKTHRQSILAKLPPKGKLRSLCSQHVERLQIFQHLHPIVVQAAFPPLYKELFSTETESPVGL

What is called EC50 is the concentration at which the effect is half-maximal.

As for `CC(=O)N[C@H]1CC[C@H](CN2CC[C@@]3(S(=O)(=O)c4ccc(F)cc4)c4ccc(OCc5c(F)cccc5C(F)(F)F)cc4CC[C@@H]23)CC1`, the EC50 was 0.161 µM.

Values taken from US20230295087A1, “AGONISTS OF ROR GAMMAt” (BRISTOL-MYERS SQUIBB COMPANY, priority 2019, published 2023).
